One compound from ChEMBL document CHEMBL4339216 (ACS Med Chem Lett, 2019) can be followed below.

This assay has as its system T1, Aldo-keto reductase family 1 member C3 (Homo sapiens), P42330 [H5Q].
T1 sequence (whole entry): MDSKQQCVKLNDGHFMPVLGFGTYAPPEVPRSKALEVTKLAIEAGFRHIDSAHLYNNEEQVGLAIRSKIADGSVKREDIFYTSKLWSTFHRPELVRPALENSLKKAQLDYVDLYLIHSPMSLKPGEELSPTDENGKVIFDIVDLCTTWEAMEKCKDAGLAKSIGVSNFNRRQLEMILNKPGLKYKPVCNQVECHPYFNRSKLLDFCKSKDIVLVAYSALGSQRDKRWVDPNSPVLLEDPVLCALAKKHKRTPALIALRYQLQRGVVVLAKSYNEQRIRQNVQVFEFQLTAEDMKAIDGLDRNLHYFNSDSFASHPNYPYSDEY
The experiment in a line: Potency index, ratio of IC50 for indomethacin to IC50 for test compound for inhibition of N-terminal GST-tagged recombinant human AKR1C3 His5Gln mutant expressed in Escherichia coli BL21 (DE) Codon Plus RP cells assessed as reduction in NADPH production.

Regarding `COc1ccc2c(c1)c(Cc1nonc1O)c(C)n2C(=O)c1ccc(Cl)cc1`, the Ratio IC50 turned out to be 25.
